Reference: paper PMC12648443, “Modifications of NU-9, a potent protein aggregation inhibitor. Properties and activity in a cellular model of amyotrophic lateral sclerosis” (Bioorganic chemistry, 2025)

Protein sequences, listed by entry. Tags and fused reporters are not part of them. Lines headed by an entry give the natural chain unless they say otherwise; changes in a name come on top.
UniProt Q9UNQ0: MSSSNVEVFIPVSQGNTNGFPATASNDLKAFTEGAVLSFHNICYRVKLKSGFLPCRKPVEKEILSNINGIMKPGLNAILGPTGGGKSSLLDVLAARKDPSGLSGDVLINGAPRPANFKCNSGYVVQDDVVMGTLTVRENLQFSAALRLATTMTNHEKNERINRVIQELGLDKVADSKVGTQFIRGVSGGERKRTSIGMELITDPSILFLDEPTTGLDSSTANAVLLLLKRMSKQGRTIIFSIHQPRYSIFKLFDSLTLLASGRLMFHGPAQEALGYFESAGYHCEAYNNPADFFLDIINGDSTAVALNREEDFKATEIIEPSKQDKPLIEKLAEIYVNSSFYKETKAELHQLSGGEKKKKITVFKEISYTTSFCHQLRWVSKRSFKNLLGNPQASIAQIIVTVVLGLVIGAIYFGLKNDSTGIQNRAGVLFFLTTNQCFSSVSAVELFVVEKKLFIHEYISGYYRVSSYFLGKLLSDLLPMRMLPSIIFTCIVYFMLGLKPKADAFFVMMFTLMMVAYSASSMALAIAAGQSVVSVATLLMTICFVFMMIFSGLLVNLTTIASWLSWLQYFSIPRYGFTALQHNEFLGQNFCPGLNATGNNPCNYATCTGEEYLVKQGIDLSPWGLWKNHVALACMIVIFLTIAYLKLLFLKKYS

Target: T1, BCRP (Homo sapiens, UniProt Q9UNQ0)
T1 construct: host or cells: MDCKII-BCRP (canine MDR1 knockout, transfected with BCRP)
Experiment: MDCKII-BCRP bidirectional permeability / efflux assay
Assay type: in vitro ADME
Conditions: dog, absence of Ko143

O=C1CN(/N=C/c2ccc(-c3ccc([N+](=O)[O-])cc3)o2)C(O)=N1 [Dan., dantrolene, reference compound]
Papp A→B at 120 min: 0.52 ± 0.1 ×10⁻⁶ cm/s | Papp B→A at 120 min: 29.7 ± 3.21 ×10⁻⁶ cm/s | efflux ratio at 120 min: 56.9
